Values of other authors in patent publication US20050101560A1, “Method of treating an individual with methyl 1-[N6-(3-iodobenzyl)-adenin-9-yl] beta-D-ibofuronamide” (CAN-FITE BIOPHARMA LTD., priority 2003, published 2005).

Chains of the proteins cited; added tags and fusions are not shown.
UniProt P0DMS8, whole entry: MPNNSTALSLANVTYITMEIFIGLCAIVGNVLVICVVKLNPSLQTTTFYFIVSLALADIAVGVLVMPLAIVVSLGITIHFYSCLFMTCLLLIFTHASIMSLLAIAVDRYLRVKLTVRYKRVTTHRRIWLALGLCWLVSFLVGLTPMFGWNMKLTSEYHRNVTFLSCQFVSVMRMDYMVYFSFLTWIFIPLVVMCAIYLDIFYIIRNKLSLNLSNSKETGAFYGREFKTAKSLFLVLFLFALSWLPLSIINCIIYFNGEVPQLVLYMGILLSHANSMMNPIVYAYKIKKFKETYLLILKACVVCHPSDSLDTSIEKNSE

Molecular target: A3 adenosine receptor (Homo sapiens, UniProt P0DMS8)
Settings: Jacobson et al., U.S. Pat. No. 5,773,423; cited from earlier work

CNC(=O)[C@H]1O[C@@H](n2cnc3c(NCc4cccc(I)c4)ncnc32)[C@H](O)[C@@H]1O [IB-MECA, methyl 1-[N6-(3-iodobenzyl)-adenin-9-yl]-β-D-ibofuronamide]
receptor activity: selective A3 adenosine receptor agonist
